Read-outs that look alike come from different tables or passages of the source.
What was measured:
XIAP (NanoLuc-XIAP) = XIAP (NanoLuc-XIAP) (Homo sapiens, UniProt P98170); assay: NanoBRET XIAP target engagement assay; format: binding; conditions: read-out: apparent intracellular affinity to XIAP (EC50), NanoBRET tracer displacement
Description: To better understand the mechanisms by which these compounds target XIAP in high-risk neuroblastoma, binding interactions between the antagonists and XIAP were first determined in BE(2)-C and KELLY cells using a NanoBRET quantitative target engagement assay. […] It was worth noting that BV6 bound more strongly to XIAP than A4 with the following apparent intracellular affinities determined—0.21 µmol/L (BV6) versus 10.7 µmol/L (A4) in BE(2)-C and 0.30 µmol/L (BV6) versus 9.1 µmol/L (A4) in KELLY (Fig. 3A). […]
FIGURE 3 Binding and degradation of XIAP by A4 is necessary for targeting high-risk neuroblastoma cells. […] BRET signal was measured at 2 hours after treatment using a Tecan Infinite 200 Pro equipped with NanoBRET dual-filters (donor 460 nm and acceptor 618 nm) and determined via the formula (BRET ratio = values at 618 nm/values at 460 nm). […] Cells were treated with increasing dose of A4 or BV6 and luminescence was measured continuously in real time for 2 hours. Luminescence values were normalized to DMSO vehicle control and degradation profiles were generated using GraphPad Prism. Values were expressed as mean ± SD of three independent experiments conducted in duplicates. […]
The quantification and determination of XIAP target engagement with test compounds was performed via Promega’s NanoBRET XIAP target engagement assay. […]

The chains behind the UniProt entries cited, without tags or fusion partners.
UniProt P98170, whole entry: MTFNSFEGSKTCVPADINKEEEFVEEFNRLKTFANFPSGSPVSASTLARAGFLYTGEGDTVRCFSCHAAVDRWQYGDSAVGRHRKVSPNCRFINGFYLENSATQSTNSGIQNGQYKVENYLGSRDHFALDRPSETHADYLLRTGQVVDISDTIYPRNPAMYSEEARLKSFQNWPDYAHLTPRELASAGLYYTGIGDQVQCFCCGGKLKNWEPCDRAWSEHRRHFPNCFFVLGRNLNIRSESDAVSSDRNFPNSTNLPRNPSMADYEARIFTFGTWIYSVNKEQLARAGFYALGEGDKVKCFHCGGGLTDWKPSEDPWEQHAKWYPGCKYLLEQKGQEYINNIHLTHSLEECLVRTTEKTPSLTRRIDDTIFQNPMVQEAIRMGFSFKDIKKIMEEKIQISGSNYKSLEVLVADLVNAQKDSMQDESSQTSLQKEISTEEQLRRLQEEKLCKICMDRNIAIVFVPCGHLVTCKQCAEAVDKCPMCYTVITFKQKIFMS

[1] = system: NBL01-1116 patient-derived neuroblastoma cells; assay: RealTime-Glo MT cell viability assay; format: cell-based, Human
[2] = system: NBL-07-0317 patient-derived neuroblastoma cells; assay: RealTime-Glo MT cell viability assay; format: cell-based, Human
NB1 = assay: RealTime-Glo MT cell viability assay; format: cell-based, Human
[3] = system: NBL16-0118 patient-derived neuroblastoma cells; assay: RealTime-Glo MT cell viability assay; format: cell-based, Human
KELLY = assay: RealTime-Glo MT cell viability assay; format: cell-based, Human
BE(2)-C = assay: RealTime-Glo MT cell viability assay; format: cell-based, Human
CHP212 = assay: RealTime-Glo MT cell viability assay; format: cell-based, Human
NLF = assay: RealTime-Glo MT cell viability assay; format: cell-based, Human
[4] = system: NBL27-0218A patient-derived neuroblastoma cells; assay: RealTime-Glo MT cell viability assay; format: cell-based, Human
SK-N-SH = assay: RealTime-Glo MT cell viability assay; format: cell-based, Human
SK-N-AS = assay: RealTime-Glo MT cell viability assay; format: cell-based, Human
IMR-32 = assay: RealTime-Glo MT cell viability assay; format: cell-based, Human
XIAP = XIAP (Homo sapiens, UniProt P98170); assay: NanoBRET ubiquitination assay; format: cell-based; conditions: neuroblastoma cells with endogenous luminescent-tagged XIAP

Work on `COC(=O)c1[nH]c2ccc(Cl)cc2c1NC(=O)CN1CCN(Cc2ccccc2)CC1` yielded an EC50 (XIAP (NanoLuc-XIAP); BE(2)-C cells) of 10.7 µM, an EC50 (XIAP (NanoLuc-XIAP); KELLY cells) of 9.1 µM and an IC50 ([1]; NBL01-1116, 24 hours) of 19.8 µM. For the same compound, the IC50 ([1]; NBL01-1116, 48 hours) was 19.6 µM, the IC50 ([1]; NBL01-1116, 72 hours) was 20.3 µM and the IC50 ([2]; NBL-07-0317, 24 hours) was 14.2 µM. It also gave an IC50 ([2]; NBL-07-0317, 48 hours) of 15.4 µM, an IC50 ([2]; NBL-07-0317, 72 hours) of 15.7 µM and an IC50 (NB1; NB1, 24 hours) of 9.2 µM. For the same compound, the IC50 (NB1; NB1, 48 hours) was 5.3 µM, the IC50 (NB1; NB1, 72 hours) was 4.6 µM and the IC50 ([3]; NBL16-0118, 24 hours) was 2 µM. It also gave an IC50 ([3]; NBL16-0118, 48 hours) of 2.2 µM, an IC50 ([3]; NBL16-0118, 72 hours) of 2.4 µM and an IC50 (KELLY; 24 hours) of 4.8 µM. It also gave an IC50 (KELLY; 48 hours) of 3.9 µM, an IC50 (KELLY; 72 hours) of 3.3 µM and an IC50 (BE(2)-C; 24 hours) of 5.9 µM. The IC50 (BE(2)-C; 48 hours) was 4.5 µM, the IC50 (BE(2)-C; 72 hours) was 3.7 µM and the IC50 (CHP212; CHP212, 48 hours) was 7.7 µM. It also gave an IC50 (CHP212; CHP212, 72 hours) of 7.5 µM, an IC50 (NLF; 24 hours) of 8.3 µM and an IC50 (NLF; 48 hours) of 6.2 µM. For the same compound, the IC50 (NLF; 72 hours) was 5.9 µM, the IC50 ([4]; 24 hours) was 5.9 µM and the IC50 ([4]; 48 hours) was 7 µM. For the same compound, the IC50 ([4]; 72 hours) was 8.5 µM, the IC50 (SK-N-SH; 24 hours) was 15 µM and the IC50 (SK-N-SH; 48 hours) was 12.9 µM. It also gave an IC50 (SK-N-SH; 72 hours) of 11.6 µM, an IC50 (SK-N-AS; 24 hours) of 3.5 µM and an IC50 (SK-N-AS; 48 hours) of 5.2 µM. It also gave an IC50 (SK-N-AS; 72 hours) of 4.7 µM, an IC50 (IMR-32; IMR-32, 24 hours) of 11.9 µM and an IC50 (IMR-32; IMR-32, 48 hours) of 7.9 µM. The IC50 (IMR-32; IMR-32, 72 hours) was 6.5 µM and the “binding of ubiquitin to XIAP (BRET ratio)” value (XIAP) was “clear dose-dependent increase in BRET ratio”.

— paper PMC10681007, “Targeted Degradation of XIAP is Sufficient and Specific to Induce Apoptosis in MYCN-overexpressing High-risk Neuroblastoma” (Cancer Research Communications, 2023)
